Measurements taken from article PMC6002838 (The Journal of antibiotics, 2017).

Amino acid sequences for entries named in this document (tags omitted).
UniProt Q00987, whole entry: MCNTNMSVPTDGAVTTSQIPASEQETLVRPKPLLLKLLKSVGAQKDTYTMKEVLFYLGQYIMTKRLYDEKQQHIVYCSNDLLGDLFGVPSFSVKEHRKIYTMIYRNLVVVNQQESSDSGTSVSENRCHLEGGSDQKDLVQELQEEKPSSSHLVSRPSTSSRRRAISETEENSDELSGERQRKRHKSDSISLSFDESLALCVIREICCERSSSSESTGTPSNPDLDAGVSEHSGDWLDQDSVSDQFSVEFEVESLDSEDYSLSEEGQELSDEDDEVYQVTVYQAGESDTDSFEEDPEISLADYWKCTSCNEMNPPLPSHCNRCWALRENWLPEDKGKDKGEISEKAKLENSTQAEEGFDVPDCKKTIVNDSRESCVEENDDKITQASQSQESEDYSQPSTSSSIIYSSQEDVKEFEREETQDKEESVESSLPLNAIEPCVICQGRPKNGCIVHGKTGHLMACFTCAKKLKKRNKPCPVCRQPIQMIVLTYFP

Molecular target: MDM2-p53 complex (Homo sapiens, UniProt Q00987)
Test: MDM2-p53 complex inhibition assay
Assay type: binding
Details: 100 μM

With `COc1ccc(C2=N[C@@H](c3ccc(Cl)cc3)[C@@H](c3ccc(Cl)cc3)N2C(=O)N2CCNC(=O)C2)c(OC(C)C)c1` [nutlin-3a, Nutlin-3a] the “Disruption of MDM2-p53 complex (post-treat)” value (compounds added after formation of the complex) was “around 28%” and the “Inhibition of MDM2-p53 complex formation (pre-treat)” value (compounds added before formation of the complex) was 62%.
